Measurements published in BindingDB's records for 21824780.
This is a selection: effects in other tests are not listed, and their absence says nothing.

Sequences of proteins named here, by UniProt entry; tags and fusion partners are left off.
UniProt O60741, whole entry: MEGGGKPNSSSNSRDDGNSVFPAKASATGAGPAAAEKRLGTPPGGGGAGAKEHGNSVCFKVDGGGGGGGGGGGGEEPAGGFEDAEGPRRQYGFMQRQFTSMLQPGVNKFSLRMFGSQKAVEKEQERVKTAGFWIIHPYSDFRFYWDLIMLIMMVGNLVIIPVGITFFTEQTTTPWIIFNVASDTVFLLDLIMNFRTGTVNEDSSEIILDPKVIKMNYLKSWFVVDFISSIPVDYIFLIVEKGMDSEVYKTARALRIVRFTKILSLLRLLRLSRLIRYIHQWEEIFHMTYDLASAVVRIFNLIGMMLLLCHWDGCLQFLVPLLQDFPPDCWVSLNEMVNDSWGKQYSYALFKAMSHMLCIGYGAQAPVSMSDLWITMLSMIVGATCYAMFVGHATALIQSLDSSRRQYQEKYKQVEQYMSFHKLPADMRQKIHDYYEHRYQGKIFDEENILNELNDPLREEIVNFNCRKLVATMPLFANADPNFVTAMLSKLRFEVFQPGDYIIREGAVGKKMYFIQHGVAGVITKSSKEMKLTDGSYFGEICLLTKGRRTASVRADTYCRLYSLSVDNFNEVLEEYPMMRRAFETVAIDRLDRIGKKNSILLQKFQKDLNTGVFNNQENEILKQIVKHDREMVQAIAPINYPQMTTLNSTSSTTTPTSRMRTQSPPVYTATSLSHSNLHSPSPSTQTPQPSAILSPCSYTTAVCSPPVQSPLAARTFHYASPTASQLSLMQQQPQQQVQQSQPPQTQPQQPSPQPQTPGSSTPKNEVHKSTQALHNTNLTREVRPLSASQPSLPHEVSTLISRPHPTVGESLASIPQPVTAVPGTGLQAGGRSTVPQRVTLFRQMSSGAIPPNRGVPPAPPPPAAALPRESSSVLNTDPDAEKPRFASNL

Target: Potassium/sodium hyperpolarization-activated cyclic nucleotide-gated channel 1 (Homo sapiens, UniProt O60741)
Assay: Inhibition of human HCN1 heterologously expressed in HEK-293 cells after 30 mins by VIPR assay

COc1ccccc1C(=O)NCC1(N2CCOCC2)CCCCC1
IC50: > 200 µM
